Data: PMC12582325 (Proceedings of the National Academy of Sciences of the …, 2025)
pEC50: −log10 of the molar value. Where “and” joins values, the source holds several entries; their conditions need not be identical. Equal values may be shown once. Read-outs that look alike come from different tables or passages of the source.

What was measured:
[1] = test system: Fo.Ste2; assay type: cell-based, Fusarium oxysporum
[2] = test system: Mo Ste2 GPCR; assay type: cell-based, Magnaporthe oryzae; settings: Fig. 1D mating matrix; pheromone secreted by MATa strain, GPCR in MATα strain; deep well plate, 20 h coculture; three technical plating replicates
[3] = test system: Ca.Ste2; assay type: cell-based, Candida albicans
[4] = test system: Fg.Ste2
[5] = test system: B. bassiana; assay type: cell-based, Beauveria bassiana
[6] = test system: Bb.Ste2; assay type: cell-based, Beauveria bassiana
[7] = test system: Bb.Ste2; assay type: cell-based, Beauveria bassiana; remark: listed apart in the source
[8] = test system: Nc Ste2 GPCR; assay type: cell-based, Neurospora crassa
[9] = test system: Fg.Ste2; assay type: cell-based, Fusarium graminearum; settings: Fg.Ste2 biosensor CPK366; 10 μM synthetic alpha pheromone; normalized to yEGFP background (receptor without pheromone); four biological replicates; Fig. 1E
[10] = test system: Bc.Ste2; assay type: cell-based, Botrytis cinerea
[11] = test system: Fg.Ste2; assay type: cell-based, Fusarium graminearum; settings: for Diploid frequency (%): 20 h coculture; for diploid frequency (%) / average (diploid colonies): GPCR strain GEN37 HIS; for average (diploid colonies): dilution 500, mean of Rep1-3
[12] = test system: Bb.Ste2; assay type: cell-based, Beauveria bassiana; settings: YPL1 library cocultured with Bb.Ste2 strain GEN88, 20 h, 2 d diploid enrichment, NextSeq 500
[13] = biological target: T1, Sc Ste2 (Saccharomyces cerevisiae, UniProt D6VTK4); assay type: cell-based
T1 construct: The native Sc system and an empty construct were added as positive and negative controls; endogenous in cells; host or cells: Saccharomyces cerevisiae wild-type control strains GEN18 (MATa) and GEN27 (MATα)
T1 sequence (D6VTK4 1-431): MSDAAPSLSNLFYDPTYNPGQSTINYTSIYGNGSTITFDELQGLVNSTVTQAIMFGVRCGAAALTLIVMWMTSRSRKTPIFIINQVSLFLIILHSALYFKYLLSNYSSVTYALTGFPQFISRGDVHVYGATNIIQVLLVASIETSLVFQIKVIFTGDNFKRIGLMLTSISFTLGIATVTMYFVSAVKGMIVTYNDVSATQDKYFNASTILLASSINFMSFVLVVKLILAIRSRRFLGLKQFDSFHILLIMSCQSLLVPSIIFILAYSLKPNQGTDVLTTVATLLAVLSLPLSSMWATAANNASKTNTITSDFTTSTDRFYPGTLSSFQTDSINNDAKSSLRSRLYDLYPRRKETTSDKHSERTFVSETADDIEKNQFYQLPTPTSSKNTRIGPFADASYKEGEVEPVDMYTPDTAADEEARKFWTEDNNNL

[14] = test system: F. oxysporum microconidia; assay: Germination of F. oxysporum microconidia; assay type: cell-based, Fusarium oxysporum f. sp. lycopersici 4287; parameters: Germination of F. oxysporum microconidia (data of Sup.Fig.10): unit not given here; settings: for Germination of F. oxysporum microconidia (data of Sup.Fig.10): 400 μM pheromone, 13 h, at least 300 spores counted
Description: For F. oxysporum microconidia production, the strain was grown for 3 to 4 d in liquid potato dextrose broth (PDB) at 28 °C and 170 rpm. Germination media ([10]) was used for assessing the spore germination. RE was prepared by removing 2-wk-old tomato plants from vermiculite and washing the roots to remove any adhering substrates ([11]).
Supplementary Figure 10. Germination of F. oxysporum microconidia after 13 h of incubation in Germination Media at a cell density of […] microconidia/mL. The assay was performed with 400 μM of pheromone. All points represent the average of three biological replicates in which at least 300 spores were counted. Statistical significance was determined through one-way analysis of variance (ANOVA) with Dunnett’s multiple comparisons (✱p ≤ 0.05).

[15] = test system: F. oxysporum germ tubes; settings: gradient of 400 μM pheromone against the solvent (50% methanol); 13 h; water-agar; three biological replicates; Fig. 5A
[16] = test system: Hj.Hpr2; assay type: cell-based, Hypocrea jecorina
[17] = test system: Bc.Ste2; assay type: cell-based, Botrytis cinerea; remark: listed apart in the source
[18] = test system: Bb.Ste2; assay type: cell-based, Beauveria bassiana; settings: for Diploid frequency (%): 20 h coculture; for diploid frequency (%) / average (diploid colonies): GPCR strain GEN47 HIS; for average (diploid colonies): dilution 500, mean of Rep1-3; for Sup.Fig.7A - Bb, group mean: Mean from Tukey test details, n = 3; for diploid frequency (%), Plates, Bb: co-culture GEN110 + GEN111, individual replicates (n=3)
[19] = Fig. 1D mating matrix, pheromone secreted by MATa strain, GPCR in MATα strain, deep well plate, three technical plating replicates
[20] = Fig. 1F validation in culture tubes, secreted pheromone, three biological and three technical replicates

CSCC[C@H](NC(=O)[C@H](CS)NC(=O)[C@@H](N)Cc1c[nH]c2ccccc12)C(=O)N[C@@H](CCCNC(=N)N)C(=O)N1CCC[C@H]1C(=O)NCC(=O)N[C@@H](CCC(N)=O)C(=O)N1CCC[C@H]1C(=O)N[C@@H](CS)C(=O)N[C@@H](Cc1c[nH]c2ccccc12)C(=O)O [Bb]
diploid barcode qPCR signal relative to control (2^-dCt) [1]: 0.011 and 0.012 | Diploid frequency (%) [2]: 0.0% | Diploid frequency (%) [3]: 0.0% | diploid barcode qPCR signal relative to control (2^-dCt) ([4]; section A4, (GPCR strain) Fg, mean of Bio1-3): 0.001 | diploid barcode qPCR signal relative to control (2^-dCt) ([4]; section A4, column Fg, replicate Bio1): 0.004 | diploid barcode qPCR signal relative to control (2^-dCt) ([4]; section A4, column Fg, replicate Bio2): 0 | diploid barcode qPCR signal relative to control (2^-dCt) ([4]; section A4, column Fg, replicate Bio3): 0 | diploid barcode qPCR signal relative to control (2^-dCt) ([4]; section Cm, (GPCR strain) Fg, mean of Bio1-3): 0.034 | diploid barcode qPCR signal relative to control (2^-dCt) ([4]; section Cm, column Fg, replicate Bio1): 0.032 | diploid barcode qPCR signal relative to control (2^-dCt) ([4]; section Cm, column Fg, replicate Bio2): 0.042 | diploid barcode qPCR signal relative to control (2^-dCt) ([4]; section Cm, column Fg, replicate Bio3): 0.028 | diploid barcode qPCR signal relative to control (2^-dCt) ([4]; section SC, (GPCR strain) Fg, mean of Bio1-3): 0.0092 | diploid barcode qPCR signal relative to control (2^-dCt) ([4]; section SC, column Fg, replicate Bio1): 0.012 | diploid barcode qPCR signal relative to control (2^-dCt) ([4]; section SC, column Fg, replicate Bio2): 0.009 | diploid barcode qPCR signal relative to control (2^-dCt) ([4]; section SC, column Fg, replicate Bio3): 0.006 | diploid barcode qPCR signal relative to control (2^-dCt) ([4]; section Scramble, (GPCR strain) Fg, mean of Bio1-3): 0.0111 | diploid barcode qPCR signal relative to control (2^-dCt) ([4]; section Scramble, column Fg, replicate Bio1): 0.009 | diploid barcode qPCR signal relative to control (2^-dCt) ([4]; section Scramble, column Fg, replicate Bio2): 0.008 | diploid barcode qPCR signal relative to control (2^-dCt) ([4]; section Scramble, column Fg, replicate Bio3): 0.016 | Chemotropism of spores, group mean [5]: 9.26 | chem. Index [5]: 7.14 and 7.87 and 12.77 | Chemotropic response in Bb germ tubes ([5]; 20 hours): significant chemotropic response | Fold change yEGFP [6]: 194 | logEC50 [6]: -9.649 | Sup.Fig.3B Bb.Ste2 biosensor response, group mean ([6]; 0.0005 μM): 1097500 | pEC50 ([6]; read-out: half-maximal effective concentration (EC50)): 9.61 | Sup.Fig.7B - Bb, group mean ([7]; pH=6): 0.7667 | Sup.Fig.7B - Bb, group mean ([7]; pH=7): 0.65 | qPCR, Bb + Bb ([7]; ph=6): 0.042 and 0.063 | Diploid frequency (%) [8]: 0.0% | Fold change yEGFP [9]: 3 | Effect on activation of Bc.Ste2 by Bc pheromone, in words ([10]; 0.0005 μM Bc pheromone in combination with 10 μM peptide, four biological replicates, Fig. 2G): completely abolished | Bc.Ste2 + pheromones, biosensor response, group mean ([10]; Bc + the named peptide, Bc alone mean 134.8, mean of n = 4): 1.214 | Diploid frequency (%) [11, 19]: 0.0% | Diploid frequency (%) [11, 20]: 0.1% | diploid frequency (%) ([11]; co-culture replicate 1): 0.16% | average (diploid colonies) ([11]; co-culture replicate 1): 0.67 | diploid frequency (%) ([11]; co-culture replicate 2): 0.08% | average (diploid colonies) ([11]; co-culture replicate 2): 0.33 | diploid frequency (%) ([11]; co-culture replicate 3): 0% | average (diploid colonies) ([11]; co-culture replicate 3): 0 | Enrichment after mating, reads per million minus library before coculture [12]: +307 RPM | Diploid frequency (%) [13]: 0.0% | Germination of F. oxysporum microconidia (data of Sup.Fig.10) ([14]; biological replicate 1 (first line)): 15,55 | Germination of F. oxysporum microconidia (data of Sup.Fig.10) ([14]; biological replicate 2 (second line)): 26,45 | Germination of F. oxysporum microconidia (data of Sup.Fig.10) ([14]; biological replicate 3 (third line)): 18,65 | Mean Diff, Solvent vs. peptide ([14]; Sup.Fig.10, Dunnett's multiple comparisons test, n = 3): 23,55 | Mean 2 (peptide), germination ([14]; Sup.Fig.10, Solvent control mean 43,77, mean of n = 3): 20,22 | Effect on F. oxysporum microconidia germination, in words ([14]; exogenous addition of 400 μM peptide, 13 h in Germination Media, 3.2 x 106 microconidia/mL): significant reduction | Chemotropic response in F. oxysporum germ tubes [15]: did not | diploid barcode qPCR signal relative to control (2^-dCt) [16]: 0 | Diploid frequency (%) [17]: 0.1% | diploid frequency (%) [17]: 0.19% and 0.1% | Diploid frequency (%) [18, 19]: 0.4% | Diploid frequency (%) [18, 20]: 6.2% | diploid frequency (%) ([18]; co-culture replicate 1): 8.71% | average (diploid colonies) ([18]; co-culture replicate 1): 48 | diploid frequency (%) ([18]; co-culture replicate 2): 6.15% | average (diploid colonies) ([18]; co-culture replicate 2): 33 | diploid frequency (%) ([18]; co-culture replicate 3): 11.44% | average (diploid colonies) ([18]; co-culture replicate 3): 65 | Sup.Fig.7A - Bb, group mean ([18]; UNB): 0.08073 | diploid frequency (%), Plates, Bb ([18]; UNB): 1.59% and 3.12% and 3.62% | diploid frequency (%), Plates, Bb ([18]; pH=6): 0.53% and 1.24% | diploid frequency (%), Plates, Bb ([18]; pH=7): 0.53% and 0.89% | Sup.Fig.7A - Bb, group mean ([18]; ph=6 + HRP): 0.0078 | Sup.Fig.7A - Bb, group mean ([18]; ph=6): 0.049 | Sup.Fig.7A - Bb, group mean ([18]; ph=7): 0.001033
